# Test results published in US6649631B1, “Compositions and methods for treating bone deficit conditions” (The Board of Regents of the University of Texas System, priority 1999, dated 2003).
# Tested on: TMC-23 cells
# Assay: Chondrogenic activity: alkaline phosphatase (ALP) activity in TMC-23 cells
# Type: cell-based, mouse
# Experimental: Compounds 59-008, 59-0102 and 50-0197 were assayed for effects on the differentiation of cartilage cells, as compared to the action of recombinant human BMP-2. Briefly, a mouse clonal chondrogenic cell line, TMC-23, was isolated and cloned from costal cartilage of transgenic mice containing the BMP-2 gene control region driving SV-40 large T-antigen, generated as described in Ghosh-Choudhury et al Endocrinology 137:331-39, 1996.
# For measurement of alkaline phosphatase (ALP) activity, the technique of LF Bonewald et al. J. Biol Chem (1992) 267:8943-49, was employed. Briefly, TMC-23 cells were plated in 96 well microtiter plates in DMEM containing 10% FCS at 4×10^3 cells/well. Two days after plating, the cells were confluent and the medium was replaced with fresh medium containing 10% FCS and different concentrations of compounds or recombinant BMP-2. After an additional 2 or 5 days incubation, the plates were washed twice with PBS, and then lysing solution (0.05% Triton X-100) was added (100 μl/well). The cells were lysed by three freeze-thaw cycles of −70° C. (30 min), followed by 37° C. (30 min with shaking). Twenty microliters of cell lysates were assayed with 80 μl of 5 mM p-nitrophenol phosphate in 1.5 M 2-amino-2-methyl-propanol buffer, pH 10.3 (Sigma ALP kit, Sigma Chemical Co., St. Louis, Mo.) for 10 min at 37° C. The reaction was stopped by the addition of 100 μl of 0.5 M NaOH. The spectrophotometric absorbance at 405 nm was compared to that of p-nitrophenol standards to estimate ALP activity in the samples. The protein content of the cell lysates was determined by the Bio-Rad protein assay kit (Bio-Rad, Hercules, Calif.). Specific activity was calculated using these two parameters.
substance,measurement,setting,value
"Recombinant BMP2: recombinant human BMP-2, comparator for chondrogenic activity",increase of ALP levels compared to the vehicle control,10 ng/ml,~1.5 fold
same,increase of ALP levels compared to the vehicle control,50 ng/ml,~4 fold
same,increase of ALP levels compared to the vehicle control,100 ng/ml,approximately 10 fold
